Publication PMC8844822, “SARM1 is a multi-functional NAD(P)ase with prominent base exchange activity, all regulated bymultiple physiologically relevant NAD metabolites” (iScience, 2022)

Tests used:
[1] = target: T1, hSARM1 SAM-TIR (Homo sapiens, UniProt Q6SZW1); assay type: biochemical
T1 construct: wild type SAM-TIR fragment Val409-Thr724 were expressed in HEK 293T cells; made in house; host or cells: HEK 293T cells
T1 sequence (Q6SZW1 409-724): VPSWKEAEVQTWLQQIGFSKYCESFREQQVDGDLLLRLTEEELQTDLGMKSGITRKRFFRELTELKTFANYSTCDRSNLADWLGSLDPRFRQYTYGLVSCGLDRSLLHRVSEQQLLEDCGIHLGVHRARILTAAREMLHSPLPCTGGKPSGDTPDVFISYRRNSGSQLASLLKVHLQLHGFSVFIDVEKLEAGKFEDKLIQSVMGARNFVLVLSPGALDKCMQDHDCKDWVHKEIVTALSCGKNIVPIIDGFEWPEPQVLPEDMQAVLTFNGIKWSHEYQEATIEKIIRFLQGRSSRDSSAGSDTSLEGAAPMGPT
Procedure: (§1) hSARM1 species were routinely assayed by the NAD/NADH-Glo^TM Assay (Promega) while both Aplysia cyclase and CD38 were assayed by fluorometry using ϵNAD ([Orsomando et al., 2000]). […] Other reagents used in addition to, or in place of those above are detailed in text or in figure legends, for example metal ions, free bases, dinucleotide analogues, mononucleotides, and ribosides. Assays were all carried out at 25°C except for temperature studies. Reactions were stopped by HClO4/K2CO3 and analysed by C18-HPLC as reported ([Mori et al., 2014]). Only the acid labile NADH and NADPH were treated with 1 N NaOH and neutralized using 1:1 vol of 1.73 M KH2CO3 while the highly hydrophobic metabolites vacor, VAD, VMN and VR, were analysed by a modified C18-HPLC method ([Buonvicino et al., 2018]). Reaction products were quantified from peak areas (see Figure 2A) based on coelution with standards (except for cyclic products from NAD analogues that were not available and were attributed based on UV-spectra and retention times as predicted). Rates were calculated as follows. Hydrolysis and cyclization were measured from product generation from the respective individual dinucleotide substrate used, e.g., free and cyclic ADP-ribosyl moieties from NAD (Figure 1B). A basal value for hydrolysis/cyclization was taken as sum of these latter two products. In addition to that value, base exchange or transglycosidation was calculated from the expected dinucleotide analog formed in the presence of the corresponding free base, e.g., AcPyrAD from AcPyr and NAD.
(§2) The kinetic parameters were calculated from initial rates obtained from replicates via best-fitting analysis using the following Equation 1 for CD38 and Aplysia cyclase, or Equation 2 for hSARM1 SAM-TIR, or Equation 3 for hSARM1 full length(Equation 1) V =Vmax[S]/Km+[S] […] In that case, the resulting single curves were fit to Equation 3 as above to evaluate any competition between NMN and the substrate used (see Table 1).

[2] = target: T2, hSARM1 full length (Homo sapiens, UniProt Q6SZW1); assay: NAD(P)ase activity by HPLC (kinetics, substrates, metal ions); assay type: biochemical
T2 construct: Human recombinant SARM1 full length proteins (wild-type and E642A mutant); made in house; host or cells: HEK 293T cells
T2 sequence (Q6SZW1 28-724): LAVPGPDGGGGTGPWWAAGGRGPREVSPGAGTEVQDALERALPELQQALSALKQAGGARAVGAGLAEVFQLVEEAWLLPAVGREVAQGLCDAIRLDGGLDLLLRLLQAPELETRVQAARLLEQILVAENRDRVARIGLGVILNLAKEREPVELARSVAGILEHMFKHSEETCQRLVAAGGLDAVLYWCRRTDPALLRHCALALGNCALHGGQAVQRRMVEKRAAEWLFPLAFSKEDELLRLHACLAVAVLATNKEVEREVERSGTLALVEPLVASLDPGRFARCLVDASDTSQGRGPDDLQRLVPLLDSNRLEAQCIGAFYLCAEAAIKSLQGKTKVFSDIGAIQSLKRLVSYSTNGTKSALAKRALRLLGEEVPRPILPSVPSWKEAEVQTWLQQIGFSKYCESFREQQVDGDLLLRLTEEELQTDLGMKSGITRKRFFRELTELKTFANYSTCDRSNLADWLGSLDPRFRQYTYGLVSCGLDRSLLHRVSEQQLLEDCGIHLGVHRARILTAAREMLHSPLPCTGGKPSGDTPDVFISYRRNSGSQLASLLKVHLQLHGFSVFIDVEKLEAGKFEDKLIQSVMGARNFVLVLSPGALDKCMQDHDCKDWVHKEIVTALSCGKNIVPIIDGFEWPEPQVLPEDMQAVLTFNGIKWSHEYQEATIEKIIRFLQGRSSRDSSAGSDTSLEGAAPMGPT
Procedure: as §1, §2

[3] = hSARM1 full length +NMN 5μM, n=1
[4] = hSARM1 full length +NMN 10μM, n=1
[5] = hSARM1 full length +NMN 20μM, n=1
[6] = hSARM1 full length +NMN 50μM, n=1

Substance: nicotinamide adenine dinucleotide phosphate [NADP]
- Km [1]: 83.5 ± 11.9 µM
- Vmax [1]: 582 ± 46.9 mU/mg
- Kcat ([1]; re-elaborated from Table 1): 0.361 ± 0.029 s⁻¹
- Km [2, 3]: 29.3 µM
- Vmax [2, 3]: 15.7 mU/mg
- Km [2, 4]: 45.9 µM
- Vmax [2, 4]: 29.9 mU/mg
- Km [2, 5]: 45 µM
- Vmax [2, 5]: 52.2 mU/mg
- Km [2, 6]: 91.7 µM
- Vmax [2, 6]: 98.1 mU/mg
- Km ([2]; hSARM1 full length, no NMN): 66.9 ± 32.6 µM
- Vmax ([2]; hSARM1 full length, no NMN): 14.3 ± 3.14 mU/mg
- Kcat ([2]; hSARM1 full length, re-elaborated from Table 1): 0.019 ± 0.004 s⁻¹
